Compounds with a hit are over-represented: about 2.2% of the library has one in this group of screens.
miR-21 reporter – miR-21 reporter, rising signal | HeLa miR-21 FLuc reporter, luciferase, 48 h | Potency, µM (doses to about 38.3 µM), inactives show at the top dose reporter change, positive = more light | 340,000 tested, under 10 active | AID 2288; active = well fitted rising curve with a large enough effect; inconclusive = small, poorly fitted or top-dose-only effect; inactive = no such curve, though single readings can be large or run the other way;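 note: % of control where 0% means no effect; miR-21 action dims this reporter so a rising signal means less miR-21 action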
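HeLa cells endogenously expressing miR-21, stably carrying CMV-driven firefly luciferase with a downstream miR-21 binding site, 2000 cells/well. Titrations up to approximately 40 uM, 48 hours; luciferase luminescence read.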
A549 tox – kills or reduces viability of A549 cells in Nrf2 counter-screen. A549 ARE-Fluc cells, CellTiter-Fluor viability, 18-24 h. Potency, µM (titrated, usually from 46 µM), inactives show top-dose activity change, negative = cytotoxicity, most hits filed as inhibitors. 390,000 tested, 0.16% active; further: potency means the concentration at half of the fitted maximal effect; on the % scale 0 is the no-effect control and ±100 the full control effect
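A549 ARE-Fluc cells in 5% FBS OPTI-MEM, 5000 cells/well, rested 2 h then exposed to compounds in concentration-response for 18-24 h at 37 °C. Viability by CellTiter-Fluor fluorescence (Ex 405/Em 525) after 30 min; luciferase luminescence (BugLite, 15 min, RT) read afterwards.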
Nrf2 inh – blocks Nrf2 signaling | A549 ARE-Fluc reporter, luciferase luminescence, 18-24 h | Potency, µM (titrated, usually from 46 µM), without a hit: at the highest dose activity change, negative = inhibition, hits mostly inhibitors | 360,000 tested, 2.1% active | AID 504444; further: potency means the concentration at half of the fitted maximal effect; on the % scale 0 is the no-effect control and ±100 the full control effect; nearly all actives have a fitted effect of over 60% in size
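Quantitative HTS in A549 cells stably bearing an antioxidant response element-firefly luciferase construct. Inhibition of Nrf2-driven transcription was scored by luminescence after 18-24 h of compound exposure at 37 °C.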
PI4K2A inh – inhibitors of human PI4K2A. Q9BTU6. purified PI4K2A, ADP-Glo luminescence, 1 h; hits give low values. activity change, negative = inhibition, % at 76.9 µM. 420,000 tested, 0.13% active; in the data active means activity change below about -50%; inconclusive means mostly about -30% to -49%;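 further: -100% = wells without enzyme as full effect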
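ADP-Glo luminescence measured ADP generated by PI4K2A enzyme (4 ug/mL before mixing) with 1.2 mM PI substrate (pre-mix) and 300 microM ATP (pre-mix). Tris pH7.5 buffer with MgCl2, Triton X-100; 1 h reaction at ambient temperature.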
GALK inh – inhibitors of human galactokinase | P51570 | Purified GALK, Kinase-Glo residual ATP luminescence | Potency, µM (highest dose often 57.5 µM), without a hit: at the top dose activity change, negative = inhibition, usual class: inhibitors | 270,000 tested, 0.007% active; further: potency means the concentration at half of the fitted maximal effect; on the % scale 0 is the no-effect control and ±100 the full control effect
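The enzyme phosphorylates galactose (100 uM) using ATP (35 uM); inhibition is detected as higher residual ATP, quantified by bioluminescence after 1 h reaction at room temperature, pH 8.0.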
Nrf2 activator – activators of Nrf2 (ARE) signaling; AREc32 ARE-luciferase reporter (MCF7-derived line), luminescence, 24 h; Potency, µM (doses to about 46.1 µM), inactives show top-dose activation, most hits filed as activators; 410,000 tested, 0.31% active; AID 624171; further: potency means the concentration at half of the fitted maximal effect; % of control where 0% means no effect; nearly all actives have a fitted effect of over 65% in size
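Quantitative high-throughput format: AREc32 reporter cells, 1000 per well, received compound by pin transfer and were incubated 24 hr at 37 deg C, 5% CO2, before Steady-Glo luminescence detection.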
* = called active by the depositor; ? = inconclusive; nt = no result. Unless noted, the call rests on the fitted dose curve; in most records, active means well fitted curve in the direction sought with a large enough effect; inconclusive means small, poorly fitted or top-dose-only effect, or another doubt; inactive means no such curve, though single readings can be large; an effect the other way counts as inactive or inconclusive.

[1] CC(C)Cn1c(N)c(C(=O)COC(=O)c2ccccc2C(=O)c2ccccc2)c(=O)n(C)c1=O
[2] CC(C)Cn1c(N)c(C(=O)COC(=O)c2ccc3c(c2)OCCO3)c(=O)n(C)c1=O
[3] Cn1c(N)c(C(=O)COC(=O)c2cc(-c3ccco3)nc3ccccc23)c(=O)n(Cc2ccccc2)c1=O
[4] CC(C)Cn1c(N)c(C(=O)COC(=O)c2cccn2C)c(=O)n(C)c1=O
[5] CC(C)Cn1c(N)c(C(=O)COC(=O)c2c(F)cccc2F)c(=O)n(C)c1=O
[6] COc1ccc(C2CCC3(CCC(=O)N3CCO)CC2)cc1 (stereo not drawn)
[7] COc1ccc(CN(Cc2ccccc2)C(=O)CN2CCN(C)CC2)cc1COc1ccc(NC(C)=O)cc1
[8] NS(=O)(=O)c1ccc(N2CCCCS2(=O)=O)cc1
Assay by compound,1,2,3,4,5,6,7,8
miR-21 reporter,nt,14%,-12%,nt,5%,nt,nt,nt
A549 tox,-28%,-15%,nt,14%,6%,nt,-2%,nt
Nrf2 inh,13µM*,10µM*,nt,23µM*,-7%,nt,-12%,nt
PI4K2A inh,0,3,nt,5,2,-5,nt,0
GALK inh,nt,0%,nt,nt,-1%,nt,nt,nt
Nrf2 activator,0%,0%,nt,-1%,6%,nt,nt,nt

Given with bars between the fields: part of the list above
No. | Molecule | miR-21 reporter | A549 tox | Nrf2 inh | PI4K2A inh | GALK inh | Nrf2 activator
5 | CC(C)Cn1c(N)c(C(=O)COC(=O)c2c(F)cccc2F)c(=O)n(C)c1=O | 5% | 6% | -7% | 2 | -1% | 6%
6 | COc1ccc(C2CCC3(CCC(=O)N3CCO)CC2)cc1 (stereo not drawn) | nt | nt | nt | -5 | nt | nt
7 | COc1ccc(CN(Cc2ccccc2)C(=O)CN2CCN(C)CC2)cc1COc1ccc(NC(C)=O)cc1 | nt | -2% | -12% | nt | nt | nt
8 | NS(=O)(=O)c1ccc(N2CCCCS2(=O)=O)cc1 | nt | nt | nt | 0 | nt | nt

Additional results follow.
[9] CC(C)N1CCCCC(NC(=O)c2c(F)cccc2F)C1=O (stereo not drawn)
[10] Cc1ccc(NS(=O)(=O)c2cc3c(cc2Cl)CCC(=O)N3)cc1C
[11] COCc1c(C(=O)OCC(=O)c2c(N)n(CC(C)C)c(=O)n(C)c2=O)oc2ccccc12
[12] Cc1c(C(=O)OCC(=O)c2c(N)n(CC(C)C)c(=O)n(C)c2=O)oc2ccccc12
[13] O=C(CSc1ncnc2c1oc1ccccc12)c1cccs1
[14] Cc1nc(SCC(=O)c2cccs2)c2oc3ccccc3c2n1
[15] CCOc1ccc(Nc2ncnc3c2cnn3Cc2ccccc2)cc1
[16] CCO/C=N/Nc1nc(C(F)(F)F)nc2c1cnn2Cc1ccccc1
Assay by compound,9,10,11,12,13,14,15,16
miR-21 reporter,nt,nt,29%,-3%,-51%,-59%,5%,7%
A549 tox,nt,1%,-4%,-1%,-3%,-5%,-4%,-19%
Nrf2 inh,nt,-21%,21µM*,?,?,-13%,?,23µM*
PI4K2A inh,7,nt,1,-3,-2,3,7,-4
GALK inh,nt,nt,8%,1%,0%,-3%,3%,4%
Nrf2 activator,nt,nt,-1%,1%,3.5µM*,13%,1%,0%

[17] Cc1noc2ncnc(N3CCCC(C(=O)Nc4cccc(C(F)(F)F)c4)C3)c12 (stereo not drawn)
[18] Cc1ccnc(N2CCC(C(=O)Nc3cccc(C(F)(F)F)c3)CC2)n1
[19] COc1ccc(NC(=O)C2CCCN(c3ncnc4onc(C)c34)C2)cc1OC (stereo not drawn)
[20] Cc1ccnc(N2CCC(C(=O)Nc3ccc(Oc4ccccc4)cc3)CC2)n1
[21] O=C(Nc1cccc(C(F)(F)F)c1)C1CCN(S(=O)(=O)c2cccc3nsnc23)CC1
[22] Cc1ccc(NC(=O)C2CCN(S(=O)(=O)c3cccc4nsnc34)CC2)cc1F
[23] CCCC1CCC2(CC1)CCC2OC(=S)Nc1ccccc1 (stereo not drawn)
[24] O=C1NC(=S)NC1=Cc1ccco1
Assay by compound,17,18,19,20,21,22,23,24
miR-21 reporter,12%,8%,-2%,-2%,0%,0%,nt,nt
A549 tox,-12%,nt,0%,0%,-4%,14%,nt,-1%
Nrf2 inh,5.8µM*,13µM*,nt,-11%,21µM*,0%,nt,-4%
PI4K2A inh,2,-1,-6,2,0,5,3,0
GALK inh,nt,-3%,nt,-1%,nt,nt,nt,nt
Nrf2 activator,3%,0%,3%,0%,8%,-1%,nt,3%

[25] O=C1NC(c2ccccc2Br)=N/C1=C\c1ccco1
[26] O=C1NC(=O)/C(=C/c2ccco2)N1
[27] O=C1NC(c2ccccc2)=N/C1=C/c1ccco1
[28] O=C1NC(c2cccc(Br)c2)=N/C1=C\c1ccco1
[29] O=C(NN=Cc1ccc(-c2ccccc2)cc1)c1cc(-c2ccc(Cl)cc2)n[nH]1
[30] COc1ccccc1CNS(=O)(=O)c1cc(CN2C(=O)c3cccnc3C2=O)ccc1OC
[31] COc1cc(CCNC2=CC(=O)c3ncccc3C2=O)ccc1O
[32] CC1CCCCC12NC(=O)N(CC(=O)N1CCN(Cc3ccc(C#N)cc3)CC1)C2=O (stereo not drawn)
Assay by compound,25,26,27,28,29,30,31,32
miR-21 reporter,-52%,nt,-56%,-55%,nt,0%,nt,nt
A549 tox,-6%,1%,-11%,-13%,nt,-3%,16µM*,0%
Nrf2 inh,17%,4%,?,?,nt,2%,13µM*,5.8µM*
PI4K2A inh,2,0,-2,-17,5,2,?,5
GALK inh,6%,nt,0%,1%,nt,2%,nt,nt
Nrf2 activator,5.6µM*,1%,4µM*,8.9µM*,nt,0%,-3%,0%

[33] Cc1cccc(C)c1NC(=O)CN1CCN(C(=O)CN2C(=O)NC3(CCCCC3C)C2=O)CC1 (stereo not drawn)
[34] CC(=O)c1c(C)oc2ccc(N(C(C)=O)S(=O)(=O)c3ccc(F)cc3C)cc12
[35] CC(=O)c1c(C)oc2ccc(N(C(C)=O)S(=O)(=O)c3cccc4cccnc34)cc12
[36] CC(=O)NC(CCS(C)(=O)=O)C(=O)Nc1cc(Cl)ccc1Cl (stereo not drawn)
[37] CC(C)S(=O)(=O)c1csc(NC(=O)Nc2cc(Cl)ccc2Cl)c1Cl
[38] C#CCOCCOCCOCCNc1nc(N2CCN(C(=O)Cn3cc(CCCN=C(N)N)nn3)CC2)nc(N2CCN(C(=O)[C@H](Cc3ccc(O)cc3)n3cc(CCO)nn3)CC2)n1
[39] O=C(CNc1cccc(S(=O)(=O)N2CCCCC2)c1)Nc1ccc(C(F)(F)F)cc1
[40] O=C(Nc1cccc(S(=O)(=O)N2CCCCC2)c1)c1cc2ccccc2o1
Assay by compound,33,34,35,36,37,38,39,40
miR-21 reporter,nt,0%,13%,-7%,-1%,nt,nt,nt
A549 tox,17%,-1%,-14%,1%,-19%,nt,nt,-12%
Nrf2 inh,-18%,?,18µM*,0%,18µM*,nt,nt,23µM*
PI4K2A inh,-6,7,3,-3,3,-2,-2,33
GALK inh,nt,-3%,-2%,0%,nt,nt,nt,nt
Nrf2 activator,0%,-1%,0%,-1%,-1%,nt,4%,2%

[41] O=C(Nc1cccc(S(=O)(=O)N2CCOCC2)c1)c1cc2ccccc2o1
[42] O=C(Nc1cccc(S(=O)(=O)N2CCCCC2)c1)c1ccc(S(=O)(=O)C(F)F)cc1
[43] O=C(CNc1cccc(S(=O)(=O)N2CCCC2)c1)Nc1ccc(C(F)(F)F)cc1
[44] CN(C)S(=O)(=O)c1cccc(NC(=O)c2ccc(S(=O)(=O)N3CCCCC3)cc2)c1
[45] O=C(Nc1cccc(S(=O)(=O)C(F)F)c1)c1ccc(S(=O)(=O)N2CCCCC2)cc1
[46] CC(C)Nc1cccc(S(=O)(=O)N2CCCN(S(=O)(=O)c3ccc4c(c3)OCCO4)CC2)c1
Assay by compound,41,42,43,44,45,46
miR-21 reporter,0%,27%,nt,nt,18%,nt
A549 tox,?,-19%,-12%,-4%,?,-3%
Nrf2 inh,?,18µM*,23µM*,?,16µM*,?
PI4K2A inh,-1,0,6,-5,-6,nt
GALK inh,0%,-2%,nt,nt,7%,nt
Nrf2 activator,3%,0%,0%,2%,1%,nt
